Key:
[1] = test system: rat; conditions: Prenatal developmental toxicity study, sprague dawley, Oral, Gavage/Intubation, dose end: 18 GD, group: maternal
[2] = test system: rat; conditions: Sub-acute repeat dose toxicity; sprague dawley; Oral; Gavage/Intubation; dose end: 30 day; group: systemic; systemic / clinical chemistry / [other] / [other] + systemic / clinical chemistry / albumin / albumin + systemic / clinical chemistry / …
[3] = test system: rabbit; conditions: Prenatal developmental toxicity study, Oral, Gavage/Intubation, dose end: 13 day
[4] = test system: rat; conditions: Prenatal developmental toxicity study, sprague dawley, Oral, Gavage/Intubation, dose end: 12 day
[5] = test system: rabbit; conditions: Prenatal developmental toxicity study, Oral, Gavage/Intubation, dose end: 13 day; remark: listed apart in the source
[6] = test system: rabbit; conditions: Prenatal developmental toxicity study, Oral, Gavage/Intubation, dose end: 19 GD
[7] = test system: rat; conditions: Chronic toxicity; sprague dawley; Oral; Gavage/Intubation; dose end: 182 day; group: systemic; systemic / in life observation / body weight / body weight + systemic / in life observation / food consumption / food consumption + systemic…
[8] = test system: rat; conditions: Prenatal developmental toxicity study, sprague dawley, Oral, Gavage/Intubation, dose end: 18 GD
[9] = test system: rabbit; conditions: Prenatal developmental toxicity study, new zealand white, Oral, Gavage/Intubation, dose end: 13 day
[10] = test system: rat; conditions: Prenatal developmental toxicity study, other, Oral, Feed, dose end: 20 PND
[11] = systemic / in life observation / body weight / body weight gain + systemic / in life observation / food consumption / food consumption
[12] = group: developmental, systemic / in life observation / body weight / fetal weight
[13] = group: maternal, reproductive / reproductive performance / resorptions / resorptions + systemic / in life observation / body weight / body weight gain + …
[14] = group: maternal, systemic / in life observation / body weight / body weight gain + systemic / in life observation / food consumption / food consumption
[15] = group: maternal, reproductive / reproductive performance / implantations / implantations + reproductive / reproductive performance / resorptions / …
[16] = group: maternal, systemic / in life observation / clinical signs / altered breathing rate + systemic / in life observation / clinical signs / drooping …
[17] = group: developmental, systemic / in life observation / body weight / offspring (pup) weight
[18] = group: maternal, systemic / in life observation / body weight / body weight gain

`O=C(Cc1ccc(Cl)c(Cl)c1)N(O)[C@H](CN1CC[C@H](O)C1)c1ccccc1` was tested, and the LOAEL [1, 11] was over 15 mg/kg/day, the NEL [1, 11] was 1 mg/kg/day and the NOAEL [1, 11] was at least 15 mg/kg/day. For the same molecule, the LEL ([1]; systemic / in life observation / food consumption / food consumption) was 5 mg/kg/day, the LEL [2] was 15 mg/kg/day and the LEL [3, 12] was 10 mg/kg/day. For the same molecule, the LOAEL [3, 12] was over 15 mg/kg/day, the NOAEL [3, 12] was at least 15 mg/kg/day and the LOAEL [3, 13] was over 15 mg/kg/day. For the same molecule, the NOAEL [3, 13] was at least 15 mg/kg/day, the LEL [3, 14] was 1 mg/kg/day and the NEL [3, 14] was under 1 mg/kg/day. For the same molecule, the LEL [4, 12] was 75 mg/kg/day, the LOAEL [4, 12] was over 75 mg/kg/day and the NOAEL [4, 12] was at least 75 mg/kg/day. The LEL [4, 13] was 15 mg/kg/day, the LOAEL [4, 13] was over 75 mg/kg/day and the NEL [4, 13] was 1 mg/kg/day. It also gave an NOAEL [4, 13] of at least 75 mg/kg/day, an LEL [5, 12] of 15 mg/kg/day and an LOAEL [5, 12] of over 15 mg/kg/day. It also gave an NOAEL [5, 12] of at least 15 mg/kg/day, an LOAEL [5, 15] of over 15 mg/kg/day and an NOAEL [5, 15] of at least 15 mg/kg/day. The LEL [5, 14] was 5 mg/kg/day, the LEL ([6]; group: developmental, developmental / developmental malformation / bone / delayed ossification + systemic / in life observation / body weight / fetal weight) was 5 mg/kg/day and the LEL [6, 14] was 1 mg/kg/day. It also gave an LEL [7] of 15 mg/kg/day.
Work on `CN1N=C2CCN(C(=O)[C@@H](COCc3ccccc3)NC(=O)C(C)(C)N)C[C@@]2(Cc2ccccc2)C1=O` [Capromorelin] yielded an LEL ([8]; group: developmental, developmental / developmental malformation / bone / full supernumerary) of 1 mg/kg/day, an LEL ([8]; group: maternal, systemic / in life observation / body weight / body weight + systemic / in life observation / food consumption / food consumption) of 15 mg/kg/day and an LEL [9, 12] of 15 mg/kg/day. The LOAEL [9, 12] was over 100 mg/kg/day, the NOAEL [9, 12] was at least 100 mg/kg/day and the LEL [9, 16] was 15 mg/kg/day. The LOAEL [9, 16] was over 100 mg/kg/day and the NOAEL [9, 16] was at least 100 mg/kg/day.
For `CC(C)(c1cc(Br)c(O)c(Br)c1)c1cc(Br)c(O)c(Br)c1` [3,3',5,5'-Tetrabromobisphenol A], the LEL [10, 17] was 819 mg/kg/day, the LOAEL [10, 17] was over 819 mg/kg/day and the NEL [10, 17] was 86.8 mg/kg/day. It also gave an NOAEL [10, 17] of at least 819 mg/kg/day, an LEL [10, 18] of 819 mg/kg/day and an LOAEL [10, 18] of over 819 mg/kg/day. For the same molecule, the NEL [10, 18] was 86.8 mg/kg/day and the NOAEL [10, 18] was at least 819 mg/kg/day.

Source: EPA's ToxRefDB 2
